What was measured:
[1] = target: Aldo-keto reductase family 1 member A1 (Rattus norvegicus) (UniProt P51635); experiment: Inhibition of Fischer-344 rat kidney ALR1 using D,L-glyceraldehyde as substrate at 10' -5 M by spectrophotometry
Rattus norvegicus = species on record: Rattus norvegicus; experiment: Selectivity index, ratio of IC50 for Fischer-344 rat kidney ALR1 to IC50 for Fischer-344 rat lens ALR2; assay type: tissue-based; settings: Lens of camera-type eye
Method in brief: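 Selectivity index calculated from the IC50 values of two spectrophotometric NADPH-consumption assays (340 nm). Rat kidney ALR1 was measured at 37 °C and rat lens ALR2 at 30 °C. Each IC50 was derived by least-squares fitting of triplicate five-concentration log(dose)–response data.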

O=C(c1ccn(-c2cc(F)c(O)c(F)c2)c1)c1ccc(Br)cc1F
inhibition [1]: 75.3% | Ratio IC50 (Rattus norvegicus): 14.1

— ChEMBL document CHEMBL2311444, “Synthesis of derivatives of the keto-pyrrolyl-difluorophenol scaffold: some structural aspects for aldose reductase inhibitory activity and selectivity” (Bioorg Med Chem, 2013)
